# Measurements as given in patent publication US9198896B2 (priority 2006, dated 2015).
# Conditions: mice, 1 day: oral 2 g, subcutaneous 1 g, intravenous 0.3 g/kg; observed up to 90 days
compound,measurement,value
CC(=O)C=O [methylglyoxal],external toxic symptoms,No external toxic symptoms
